Results published in ChEMBL document CHEMBL2417532, “Toxoflavins and deazaflavins as the first reported selective small molecule inhibitors of tyrosyl-DNA phosphodiesterase II” (J Med Chem, 2013).

How the values were obtained:
[1] = molecular target: T1, Tyrosyl-DNA phosphodiesterase 2 (Homo sapiens, UniProt O95551); test: Inhibition of TDP2 (unknown origin) using 5'-Y-TCCGTTGAAGCCTGCTTT-3' as substrate after 60 mins
T1 sequence (O95551 whole entry): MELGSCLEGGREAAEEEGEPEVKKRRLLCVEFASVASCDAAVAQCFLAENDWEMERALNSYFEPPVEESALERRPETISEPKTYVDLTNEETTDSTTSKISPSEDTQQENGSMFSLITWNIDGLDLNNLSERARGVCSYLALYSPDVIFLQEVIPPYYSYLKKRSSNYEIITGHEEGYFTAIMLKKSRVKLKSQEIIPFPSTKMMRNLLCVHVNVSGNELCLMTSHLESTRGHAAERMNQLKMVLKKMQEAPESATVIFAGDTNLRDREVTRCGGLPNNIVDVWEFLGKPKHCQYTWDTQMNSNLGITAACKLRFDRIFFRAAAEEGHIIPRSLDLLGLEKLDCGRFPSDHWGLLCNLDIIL
Procedure, shortened: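 TDP2 in 25 mM Hepes pH 8.0, 10 mM MgCl2, 130 mM KCl, 1 mM DTT, 0.03% BSA, 1% DMSO. Started with 5′-phosphotyrosyl oligonucleotide and run 60 min at 25 °C. Values are geometric means of at least two independent determinations.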

[2] = molecular target: T1, Tyrosyl-DNA phosphodiesterase 2; test: Inhibition of TDP2 (unknown origin) using 4-nitrophenyl phenylphosphonate as substrate after 60 mins

IC50 [1]: > 30 µM
EC50 [2]: > 30 µM
SMILES: O=c1nc2n(-c3ccccc3)c3ccccc3cc-2c(=O)[nH]1
